FGF22 binding = binders of recombinant human FGF22 by thermal shift | Q9HCT0 | SYPRO orange fluorescence; percent of sucrose octasulfate shift, DMSO zero | activity (Tm shift, normalised), % at 9.99 µM | actives 1.5% (n = 340,000) | AID 651658;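 active = mean Tm shift, scaled 0 neutral to 100 positive control, at about 1.3% or above, every replicate too, limit read from the data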
PDI inh = inhibitors of human protein disulfide isomerase | actives 0.052% (n = 350,000) | P07237 | PDI insulin aggregation turbidity, A650, 90 min | inhibition, % at 10 µM;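 active = mean inhibition across replicates of 30% or more, whatever share of single replicates reach that level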
PglD inh = blocks C. jejuni PglD acetyltransferase activity. actives 0.098% (n = 360,000). purified PglD enzyme, DTNB colorimetric CoA detection. inhibition, % at 12.5 µM; in the data active = inhibition above about 16%, passing the limit was not always enough
ARNT-TACC3 inh = disrupts binding between human ARNT and TACC3; actives 0.66% (n = 390,000); AID 623870; AlphaScreen His-ARNT PAS-B/GST-TACC3 binding, luminescence; TACC3 fragment carries E629A point mutation; Q9Y6A5; inhibition, % at 9.99 µM;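 active = mean inhibition of replicates at least 50% and at least half of replicates each reaching 50%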;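 also: 0% = complete ARNT plus TACC3 wells and 100% = ARNT alone without TACC3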
ERp5 inh = ERp5 (human) disulfide isomerase inhibition; AID 651711; inhibition, % at 9.99 µM; ERp5 insulin aggregation, absorbance 650 nm, 90 min; actives 0.05% (n = 350,000);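 active = mean replicate inhibition above about 25%, with every replicate also reaching it, limit read from the data, passing the limit was not always enough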
Yeast UUG start = modulators of start codon recognition fidelity in yeast; S. cerevisiae UUG-firefly luciferase reporter, luminescence/redox ratio; activity score, % at 18.7 µM; hit rate 0.13% among 350,000; AID 602363;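 active = replicate mean at a twofold rise or more, about +100% in these data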;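 note: firefly luciferase made from a UUG start codon reports start codon fidelity; reporter light over untreated wells divided by growth signal over untreated wells; some hits fall short of that in this replicate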
Active calls of the source: *; . = no result. Rows were chosen to be rich in hits. Some 1.9% of all compounds tested hit in one or more screens of this group.

no.	Molecule	ERp5 inh	Yeast UUG start	ARNT-TACC3 inh
1	O=C(C[C@@H]1CC[C@H]2[C@@H](COC[C@H](O)CN2C(=O)C2CCCC2)O1)NCc1ccncc1	-15	-2	-29
2	COc1ccc(NC(=O)c2ccco2)c([N+](=O)[O-])c1	.	-5	34
3	Cc1ccc(NC(=O)c2ccco2)c([N+](=O)[O-])c1	-1	.	-5
4	CC1CN(S(=O)(=O)c2cccc(C(=O)NCCc3ccc(S(N)(=O)=O)cc3)c2)CC(C)O1 (stereo not given)	16	-1	4
5	C/C(=N\NC(=O)c1cc(-c2ccc(Br)s2)[nH]n1)c1ccncc1	0	-18	0
6	C/C(=N/NC(=O)c1cc(-c2ccc(Br)s2)[nH]n1)c1ccco1	1	.	25
7	COCC(=O)N(C)C[C@H]1N[C@@](C)(C(=O)OC)[C@H]2C(=O)N(Cc3ccccc3)C(=O)[C@@H]12	1	11	-11
8	COC(=O)[C@]1(Cc2ccccc2)N[C@H](CN(C)C(=O)c2ccccc2)[C@@H]2C(=O)N(Cc3ccccc3)C(=O)[C@@H]21	-5	16	5
9	COC(=O)[C@]1(C)N[C@H](CN(C)C(=O)Nc2ccccc2)[C@@H]2C(=O)N(Cc3ccccc3)C(=O)[C@@H]21	-1	-13	-7
10	CC[C@@]1(C(=O)OC)N[C@H](CN(C)C(=O)c2ccccc2)[C@@H]2C(=O)N(C)C(=O)[C@@H]21	0	-6	-16
11	CC[C@@]1(C(=O)OC)N[C@H](CN(C)C(C)=O)[C@@H]2C(=O)N(Cc3ccccc3)C(=O)[C@@H]21	-1	6	-10
12	CC[C@@]1(C(=O)OC)N[C@H](CN(C)C(=O)c2ccc(F)cc2)[C@@H]2C(=O)N(C)C(=O)[C@@H]21	2	3	-1
13	Fc1cccc(NC(=S)NCCc2ccccc2)c1	-6	-26	.
14	Fc1ccc(CCNC(=S)Nc2ccc(F)c(Cl)c2)cc1	2	.	1
15	Fc1ccc(NC(=S)NCCc2ccc(Cl)cc2)cc1	-3	-27	37

no.	PglD inh	PDI inh	FGF22 binding
1	2	.	0
2	-2	-8	.
3	.	7	43*
4	-2	-2	43*
5	2	-3	0
6	.	-3	1.4*
7	4	-4	43*
8	1	-28	43*
9	-2	24	42
10	-3	8	43*
11	1	-1	44*
12	-2	-4	1
13	-5	-14	1.7*
14	.	-1	1.9*
15	1	-21	0

Shown as labelled records: entries from further up.
[4] CC1CN(S(=O)(=O)c2cccc(C(=O)NCCc3ccc(S(N)(=O)=O)cc3)c2)CC(C)O1 (stereo not given)
- ERp5 inh: 16
- Yeast UUG start: -1
- ARNT-TACC3 inh: 4
- PglD inh: -2
- PDI inh: -2
- FGF22 binding: 43*

[5] C/C(=N\NC(=O)c1cc(-c2ccc(Br)s2)[nH]n1)c1ccncc1
- ERp5 inh: 0
- Yeast UUG start: -18
- ARNT-TACC3 inh: 0
- PglD inh: 2
- PDI inh: -3
- FGF22 binding: 0

[6] C/C(=N/NC(=O)c1cc(-c2ccc(Br)s2)[nH]n1)c1ccco1
- ERp5 inh: 1
- Yeast UUG start: .
- ARNT-TACC3 inh: 25
- PglD inh: .
- PDI inh: -3
- FGF22 binding: 1.4*

[7] COCC(=O)N(C)C[C@H]1N[C@@](C)(C(=O)OC)[C@H]2C(=O)N(Cc3ccccc3)C(=O)[C@@H]12
- ERp5 inh: 1
- Yeast UUG start: 11
- ARNT-TACC3 inh: -11
- PglD inh: 4
- PDI inh: -4
- FGF22 binding: 43*

Continued:
no.	Molecule	ERp5 inh	Yeast UUG start	ARNT-TACC3 inh
16	C[C@@H](NC(=O)C[C@@H]1C=C[C@H](NC(=O)c2cccnc2)[C@@H](CO)O1)c1ccccc1	-2	-19	-3
17	C[C@@H]1CN([C@@H](C)CO)C(=O)c2cc(C#C[C@@H](C)O)cnc2O[C@H]1CN(C)C(=O)c1ccccc1F	0	-5	-3
18	O=C(Cc1ccccn1)N1CC2(C1)[C@@H](c1ccccc1)[C@H](CO)N2C(=O)c1ccncc1	7	.	.
19	Cc1ccc(Cl)cc1NC(=O)Nc1cccs1	-4	.	-1
20	COc1cccc2c1OCC/C2=N\NC(=O)COc1ccc(C)cc1	8	-7	-6
21	COc1cccc2c1OCC/C2=N\NC(=O)C(C)Oc1ccc([N+](=O)[O-])cc1 (stereo not given)	-6	.	21
22	c1ccc(-c2nnsc2-c2nc3ccccc3[nH]2)cc1	1	.	-6
23	C[C@@H]1CN([C@@H](C)CO)C(=O)c2cc(-c3ccncc3)cnc2O[C@H]1CN(C)Cc1ccc(F)cc1	-4	2	4
24	COc1ccc(N=Nc2c(N)nn(C)c2N)cc1	-2	.	0
25	O=C(CCC1CCCN(C(=O)c2ccc3c(c2)OCO3)C1)NCc1ccc(F)c(F)c1 (stereo not given)	-7	.	-3
26	O=C(CCC1CCCN(C(=O)c2ccoc2)C1)NCc1ccc(F)c(F)c1 (stereo not given)	-6	4	0
27	CN1C(=O)c2cc(NC(=O)Nc3ccccc3)ccc2OC[C@@H]2O[C@H](CC(=O)NC3CCC3)CC[C@H]21	3	15	4
28	O=C(Nc1nccs1)c1ccccn1	-3	.	0
29	O=C(Nc1nccs1)c1cccnc1Cl	-2	.	-9
30	CCCN(C)C[C@H]1Oc2cc(-c3ccccc3OC)ccc2S(=O)(=O)N([C@H](C)CO)C[C@H]1C	-5	-6	11

no.	PglD inh	PDI inh	FGF22 binding
16	0	.	0
17	-3	.	0
18	.	.	0
19	.	-5	43*
20	4	-4	1
21	.	4	62*
22	.	-9	43*
23	-2	.	0
24	.	-3	44*
25	.	2	43*
26	-3	-2	0
27	0	.	-1
28	.	-5	43*
29	.	-4	0
30	2	.	0

(further entries)
no.	Molecule	ERp5 inh	Yeast UUG start	ARNT-TACC3 inh
31	O=C(C[C@H]1CC[C@@H](NC(=O)C2CCOCC2)[C@@H](CO)O1)NCc1ccccc1Cl	-1	.	-5
32	CCCNC(=O)C[C@@H]1CC[C@@H]2[C@H](COC[C@@H](O)CN2C(=O)Nc2cccc(Cl)c2)O1	-1	.	-3
33	CC(=O)N1N=C(c2ccccc2)CC1c1ccc(F)cc1 (stereo not given)	-1	2	-3
34	O=C(O)C1Cc2[nH]cnc2C(c2ccc(F)cc2)N1 (stereo not given)	-2	.	.
35	O=C(CSc1ccccn1)N/N=C/c1cc([N+](=O)[O-])ccc1O	5	.	76*
36	O=C(Cn1nc2ccccc2n1)N/N=C/c1cc([N+](=O)[O-])ccc1O	0	-22	.
37	O=C(N/N=C/c1cc([N+](=O)[O-])ccc1O)C1CCCCC1	1	.	67*
38	CNC(=O)C[C@H]1CC[C@H]2[C@@H](COc3ccc(NC(=O)c4ccc(C#N)cc4)cc3C(=O)N2C)O1	-1	4	-45
39	C[C@@H]1CN([C@H](C)CO)C(=O)c2cc(NS(=O)(=O)c3cn(C)cn3)ccc2O[C@H]1CN(C)Cc1ccc2c(c1)OCO2	-3	-14	-5
40	CC=Cc1ccc2n(c1=O)C[C@H]1[C@H](CO)[C@@H](C(=O)NCc3ccccn3)N(CCC)[C@@H]21 (mixture of isomers)	-2	.	.
41	Cc1cc(C(=O)NN=C2CCCC2)c2ccccc2n1	2	-20	2
42	Cc1cc(C(=O)N/N=C2\CC(=O)CC(C)(C)C2)c2ccccc2n1	-2	.	-1
43	Nn1c(-c2ccccn2)nnc1-c1ccccn1	.	-22	79*
44	C/C(=N\NC(=O)c1ccc(CSc2nncn2C)cc1)c1cccs1	-6	.	.
45	C/C(=N\NC(=O)c1ccc(CSc2nncn2C)cc1)c1ccc(Cl)cc1	2	.	.
46	C/C(=N\NC(=O)c1cc(C)[nH]n1)c1cccs1	-1	-12	1
47	C/C(=N/NC(=O)c1cc(C(C)C)[nH]n1)c1cccs1	.	-42	0

no.	PglD inh	PDI inh	FGF22 binding
31	18	.	0
32	4	.	0
33	2	5	0
34	.	5	43*
35	.	2	1
36	-7	0	43
37	.	-3	0
38	1	.	0
39	2	.	0
40	.	.	.
41	-4	-2	0
42	.	4	43*
43	3	0	.
44	.	6	43*
45	.	8	0
46	7	1	44*
47	.	-3	.
